# Results published in publication PMC6522524 (Nature Communications, 2019).
# Several values for one entry are separate records, joined by “and”; a condition that tells them apart may be missing. Equal values may be shown once. Read-outs that look alike come from different tables or passages of the source.
# What was measured:
# [1] = tested on: HBV in HepG2.2.15 cells; details: for Relavive secreted HBV DNA level(Folds), Sample1-3: individual samples; for inhibition of HBV DNA secretion in combination: Chou-Talalay
# [2] = tested on: HBV in HepG2.2.15 cells; details: for Relavive intracellular HBV DNA level(Folds), Sample1-3: individual samples; for inhibition of intracellular HBV DNA levels in combination: Chou-Talalay
# [3] = 0.1 μM (in combinations: ciclopirox concentration)
# [4] = 0.2 μM (in combinations: ciclopirox concentration)
# [5] = 0.5 μM (in combinations: ciclopirox concentration)
# [6] = 1 μM (in combinations: ciclopirox concentration)
# [7] = 2 μM (in combinations: ciclopirox concentration)
# [8] = 5 μM (in combinations: ciclopirox concentration)
# [9] = 10 μM (in combinations: ciclopirox concentration)
# [10] = 0.1–10 μM ciclopirox combined with 1 μM ETV
# [11] = 0.1–10 μM ciclopirox combined with 1 μM TDF
Compound,"Relavive secreted HBV DNA level(Folds), AVERAGE [1, 3] [Folds]","Relavive secreted HBV DNA level(Folds), Sample1-3 [1, 3]","Relavive secreted HBV DNA level(Folds), AVERAGE [1, 4] [Folds]","Relavive secreted HBV DNA level(Folds), Sample1-3 [1, 4]","Relavive secreted HBV DNA level(Folds), AVERAGE [1, 5] [Folds]","Relavive secreted HBV DNA level(Folds), Sample1-3 [1, 5]","Relavive secreted HBV DNA level(Folds), AVERAGE [1, 6] [Folds]","Relavive secreted HBV DNA level(Folds), Sample1-3 [1, 6]","Relavive secreted HBV DNA level(Folds), AVERAGE [1, 7] [Folds]","Relavive secreted HBV DNA level(Folds), Sample1-3 [1, 7]","Relavive secreted HBV DNA level(Folds), AVERAGE [1, 8] [Folds]","Relavive secreted HBV DNA level(Folds), Sample1-3 [1, 8]","Relavive secreted HBV DNA level(Folds), AVERAGE [1, 9] [Folds]","Relavive secreted HBV DNA level(Folds), Sample1-3 [1, 9]","Relavive intracellular HBV DNA level(Folds), AVERAGE [2, 3] [Folds]","Relavive intracellular HBV DNA level(Folds), Sample1-3 [2, 3]","Relavive intracellular HBV DNA level(Folds), AVERAGE [2, 4] [Folds]","Relavive intracellular HBV DNA level(Folds), Sample1-3 [2, 4]","Relavive intracellular HBV DNA level(Folds), AVERAGE [2, 5] [Folds]","Relavive intracellular HBV DNA level(Folds), Sample1-3 [2, 5]",other results
"C=C1[C@H](CO)[C@@H](O)C[C@@H]1n1cnc2c(=O)[nH]c(N)nc21 [ETV, entecavir]",1.0783,1.0727 Folds and 1.1087 Folds and 1.0536 Folds,0.7059,0.7066 Folds and 0.7053 Folds and 0.7059 Folds,0.5143,0.5200 Folds and 0.5166 Folds and 0.5062 Folds,0.2012,0.2707 Folds and 0.1484 Folds and 0.1843 Folds,0.1944,0.1993 Folds and 0.1758 Folds and 0.2081 Folds,0.0746,0.0889 Folds and 0.0624 Folds and 0.0724 Folds,0.0414,0.0303 Folds and 0.0511 Folds and 0.0429 Folds,0.9787,0.9427 Folds and 1.02 Folds and 0.9736 Folds,0.7931,0.7871 Folds and 0.8763 Folds and 0.7159 Folds,0.4576,0.45 Folds and 0.4365 Folds and 0.4862 Folds,"Relavive intracellular HBV DNA level(Folds), AVERAGE [2, 6]: 0.3876 Folds; Relavive intracellular HBV DNA level(Folds), Sample1-3 [2, 6]: 0.3707 Folds and 0.4077 Folds and 0.3843 Folds; Relavive intracellular HBV DNA level(Folds), AVERAGE [2, 7]: 0.1647 Folds; Relavive intracellular HBV DNA level(Folds), Sample1-3 [2, 7]: 0.1693 Folds and 0.1305 Folds and 0.1941 Folds; Relavive intracellular HBV DNA level(Folds), AVERAGE [2, 8]: 0.1146 Folds; Relavive intracellular HBV DNA level(Folds), Sample1-3 [2, 8]: 0.07091 Folds and 0.1489 Folds and 0.1239 Folds; Relavive intracellular HBV DNA level(Folds), AVERAGE [2, 9]: 0.0442 Folds; Relavive intracellular HBV DNA level(Folds), Sample1-3 [2, 9]: 0.02841 Folds and 0.06145 Folds and 0.04287 Folds"
"Cc1cc(C2CCCCC2)n(O)c(=O)c1 [Ciclopirox, 6-cyclohexyl-1-hydroxy-4-methyl-2(1 H)-pyridone]",,,,,,,,,,,,,,,,,,,,,"inhibition of HBV DNA secretion in combination [1, 10]: synergistic inhibition; inhibition of HBV DNA secretion in combination [1, 11]: synergistic inhibition; inhibition of intracellular HBV DNA levels in combination [2, 10]: synergistic inhibition; inhibition of intracellular HBV DNA levels in combination [2, 11]: synergistic inhibition"
"C[C@H](Cn1cnc2c(N)ncnc21)OCP(=O)(O)O [TDF, tenofovir]",0.9790,0.9655 Folds (2×) and 1.0059 Folds,0.6990,0.6085 Folds and 0.7329 Folds and 0.7556 Folds,0.5046,0.5016 Folds and 0.5166 Folds and 0.4955 Folds,0.2157,0.2232 Folds and 0.2185 Folds and 0.2055 Folds,0.1277,0.1185 Folds and 0.149 Folds and 0.1155 Folds,0.0725,0.05055 Folds and 0.07854 Folds and 0.08856 Folds,0.0465,0.03155 Folds and 0.06155 Folds and 0.04655 Folds,0.9955,0.9846 Folds and 1.063 Folds and 0.9389 Folds,0.7990,0.7755 Folds and 0.8669 Folds and 0.7546 Folds,0.5046,0.5105 Folds and 0.5127 Folds and 0.4905 Folds,"Relavive intracellular HBV DNA level(Folds), AVERAGE [2, 6]: 0.3157 Folds; Relavive intracellular HBV DNA level(Folds), Sample1-3 [2, 6]: 0.3245 Folds and 0.3181 Folds and 0.3045 Folds; Relavive intracellular HBV DNA level(Folds), AVERAGE [2, 7]: 0.2277 Folds; Relavive intracellular HBV DNA level(Folds), Sample1-3 [2, 7]: 0.2406 Folds and 0.2199 Folds and 0.2224 Folds; Relavive intracellular HBV DNA level(Folds), AVERAGE [2, 8]: 0.0725 Folds; Relavive intracellular HBV DNA level(Folds), Sample1-3 [2, 8]: 0.06546 Folds and 0.09564 Folds and 0.05655 Folds; Relavive intracellular HBV DNA level(Folds), AVERAGE [2, 9]: 0.0465 Folds; Relavive intracellular HBV DNA level(Folds), Sample1-3 [2, 9]: 0.04458 Folds and 0.0513 Folds and 0.04376 Folds"
